Sequences of proteins named here, by UniProt entry; tags and fusion partners are left off.
UniProt P21796, whole entry: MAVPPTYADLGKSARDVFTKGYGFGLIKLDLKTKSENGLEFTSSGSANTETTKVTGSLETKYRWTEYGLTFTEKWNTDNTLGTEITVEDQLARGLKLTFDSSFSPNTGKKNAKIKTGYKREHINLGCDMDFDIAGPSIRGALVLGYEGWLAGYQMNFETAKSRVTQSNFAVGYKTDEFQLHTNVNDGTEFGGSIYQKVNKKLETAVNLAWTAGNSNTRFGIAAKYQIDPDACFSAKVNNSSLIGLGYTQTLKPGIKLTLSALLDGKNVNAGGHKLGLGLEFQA

In publication PMC5027585, “TSPO ligands stimulate ZnPPIX transport and ROS accumulation leading to the inhibition of P. falciparum growth in human blood” (Scientific Reports, 2016):

Molecular target: Voltage Dependent Anion Channel (VDAC) (human (endogenous in red blood cells)) (UniProt P21796)
Assay: SDS-PAGE and immunoblot (SDS-resistant forms); ghosts of healthy and infected RBCs in 5P8 buffer, solubilised in 1% Triton X-100, denaturing SDS-PAGE, immunoblot; oligomeric state read from the size of the bands

- stoichiometry N: 2
Substance: Voltage Dependent Anion Channel (VDAC) (from UniProt P21796 1-283) (natural protein)
